Test results reported in ChEMBL document CHEMBL5727194, “Factor IXa inhibitors” (2019).

Sequences of proteins named here, by UniProt entry; tags and fusion partners are left off. Residues count along the entry.
UniProt P00740, 227-461 limits assumed: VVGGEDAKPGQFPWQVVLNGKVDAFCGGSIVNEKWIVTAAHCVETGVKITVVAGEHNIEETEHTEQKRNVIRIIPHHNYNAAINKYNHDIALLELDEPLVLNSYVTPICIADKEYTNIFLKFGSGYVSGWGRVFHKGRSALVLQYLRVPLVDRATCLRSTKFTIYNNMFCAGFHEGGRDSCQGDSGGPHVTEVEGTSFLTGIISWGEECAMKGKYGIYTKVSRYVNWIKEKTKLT
UniProt P00740, 47-191 limits assumed: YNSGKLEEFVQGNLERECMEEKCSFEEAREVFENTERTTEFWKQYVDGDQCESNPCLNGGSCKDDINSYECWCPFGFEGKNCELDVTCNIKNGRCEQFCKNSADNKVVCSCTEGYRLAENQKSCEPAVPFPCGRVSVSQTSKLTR

Target: Coagulation factor IX (Homo sapiens, UniProt P00740)

Structure (SMILES) | IC50 [nM]
Cc1ccc2c(c1)c(C(=O)O)c1n2C[C@@](NC(=O)c2ccc(-n3cnc(C)n3)cc2Cl)(c2ccccc2)CC1 | 1.03
Cc1ccc2c(c1)c(CCC(N)=O)c1n2C[C@@](NC(=O)c2ccc(-n3cnnc3)cc2Cl)(c2ccccc2)CC1 | 2.55
